Target: Sigma non-opioid intracellular receptor 1 (Cavia porcellus, UniProt Q60492)
Experiment: Competitive Radioligand Binding Assay 2: The affinity of test compounds at sigma-1 and sigma-2 receptors was also determined by displacement of different known labeled sigma-2 or sigma-1 ligands. Filtration assays were conducted according the previously published procedure (Xu, et al., 2005). Test compounds were dissolved in N,N-Dimethylformamide (DMF), dimethyl sulfoxide (DMSO) or ethanol and then diluted in 50 mM Tris-HCl pH 7.4 buffer containing 150 mM NaCl and 100 mM EDTA. Membrane homogenates were made from guinea pig brain for sigma-1 binding assay and rat liver for sigma-2 binding assay. Membrane homogenates were diluted with 50 mM Tris-HCl buffer, pH 8.0 and incubated at 25° C. in a total volume of 150 uL in 96 well plates with the radioligand and test compounds with concentrations ranging from 0.1 nM to 10 uM. After incubation was completed, the reactions were terminated by the addition of 150 uL of ice-cold wash buffer (10 mM Tris HCl, 150 mM NaCl, pH 7.4) using a 96 channel transfer pipette (Fisher Scientific, Pittsburgh, Pa.) and the samples harvested and filtered rapidly through 96 well fiber glass filter plate (Millipore, Billerica, Mass.) that had been presoaked with 100 uL of 50 mM Tris-HCl buffer. Each filter was washed four times with 200 uL of ice-cold wash buffer (10 mM Tris-HCl, 150 mM NaCl, pH 7.4). […]

The chains behind the UniProt entries cited, without tags or fusion partners.
UniProt Q60492, whole entry: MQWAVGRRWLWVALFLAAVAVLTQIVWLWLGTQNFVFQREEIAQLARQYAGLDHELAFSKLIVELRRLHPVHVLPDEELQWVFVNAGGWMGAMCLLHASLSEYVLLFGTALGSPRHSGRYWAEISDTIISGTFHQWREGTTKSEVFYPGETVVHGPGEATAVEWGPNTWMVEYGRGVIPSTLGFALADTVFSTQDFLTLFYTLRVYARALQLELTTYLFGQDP

Ki: 4.1 nM
SMILES: CC(C)=CC(CC(C)(C)c1ccc(C(F)(F)F)cc1)N1CCC(C)(C)CC1 (stereo unspecified)

— ChEMBL document CHEMBL5728910, “Compositions for treating neurodegenerative diseases” (2022)
